This is an account of results in US20100297624A1, “Involvement of Lipid Kinase, and Signal Transduction Pathway Comprising Said Lipid Kinase, in Resistance to HER2-Targeting Therapy” (STICHTING HET NEDERLANDS KANKER INSTITUUT, priority 2007, published 2010).

Assay [1] concerns HER2 over-expressing metastatic breast cancer. As to the kind of experiment: Time to progression on Trastuzumab-based therapy in patient cohorts. The format is in vivo, human.
In assay [2] the test system is HER2 over-expressing invasive breast cancers. The settings on record: in combination with chemotherapy; cited from earlier work.
The test system of the next assay is BT-474 cells. The assay is described as follows: Proliferation of BT-474 cells cultured in Trastuzumab. The conditions noted are these: for sensitivity to Trastuzumab: FIG. 2a. Type of assay: cell-based, human. How it is done:
(§1) The human breast cancer cell lines BT-474 and SKBR-3 were purchased from the American Type Culture Collection (ATCC, Manassas) and were cultured in Dulbecco's Modified Eagle Medium (DMEM) supplemented with 8% heat-inactivated fetal calf serum, penicillin and streptomycin. For both the BT-474 and SKBR-3 cell lines, subclones were generated that ectopically express the murine ecotropic receptor. Ecotropic retroviral supernatants were produced by transfection of Phoenix packaging cells. Transfections were performed with the calcium phosphate precipitation technique. Viral supernatants were filtered through a 0.45 μm filter and infections were performed in the presence of 8 μg/ml polybrene (Sigma). Drug selections in BT-474 and SKBR-3 cells were performed with 2 μg/ml puromycin.
BT-474 cells were infected with retroviruses representing the complete NKi RNAi library as described previously (Berns et al. 2004. Nature 428: 431-437). Infected cells were selected with puroraycin (2.0 μg/ml) and plated into two populations at low density. […] During the screen, cells were trypsinized and replated, to remove small cell clumbs. After 4 weeks in culture the treated and untreated populations were collected. Genomic DNA was isolated with the use of DNAzol (Life Technologies). The shRNA inserts were amplified from genomic DNA by PCR using the primers pRS-T7-fw, 5′[…] […]-3′, containing a T7 RNA polymerase promoter sequence, and pRS-8-rev, 5′-[…]-3′. Purified PCR products were used for linear RNA amplification, and purified RNA probes were labeled with cyanine-3 (Cy3) or cyanine-5 (Cy5) fluorescent groups (Kreatech). […] Quantification of the resulting fluorescent images was performed with Imagene 5.6 (BioDiscovery), local background was subtracted, and the data were normalized and 2 log transformed.
The retroviral vector expressing a constitutive active mutant of PIK3CA (110αCaaX) and the knock down vector for PTEN have been described previously (Kortlever et al. 2006. Nature Cell Biol. 8: 877-884). […]
We have previously described the generation of a library of 24,000 shRNA retroviral vectors targeting some 8,000 human genes for suppression by RNA interference as well as a technology to rapidly screen such libraries, named siRNA bar code screening (Brummelkamp et al. 2006, Nat Chem Biol 2; 202-206; Berns et al. 2004. Nature 428: 431-437). In short, this technology-allows one to identify shRNAs that are enriched in a population based on the relative abundance of a ‘bar code” identifier (a unique 19-mer DNA sequence) in the vector, which is measured on a DNA micro-array that carries the 24,000 different bar code sequences. […] We combined the data from five independent Trastuzumab barcode screens and analyzed the relative abundance of the recovered shRNAs.

The subject of the next assay is SK-BR3 cells. The assay is described as follows: Proliferation of SKBR-3 cells cultured in Trastuzumab. The conditions noted are these: SK-BR3 cells expressing PIK3CA(wt) or PIK3CA(H1047R), FIG. 2b. Type of assay: cell-based, human. As for the experimental part:
as §1
The retroviral vector expressing a constitutive active mutant of PIK3CA (110αCaaX) and the knock down vector for PTEN have been described previously (Kortlever et al. 2006. Nature Cell Biol. 8: 877-884). The PIK3CA (wt) and PIK3CA (H1047R) cDNAs were generated with PCR using the caPIK3CA as a template and cloned into the pMXiresGFP retroviral vector. Control infections were performed with a GFP expressing retrovirus or with a hairpin targeting GFP.

With “Trastuzumab: monoclonal antibody that targets the Human Epidermal growth factor Receptor 2 (HER2)”, the “time to progression, range” value in assay [1] (MD Anderson cohort) is listed as 0.8-44.7 months; in assay [1] (NKI cohort), 0.7-37.5 months. Besides, the “Average time to progression” value in assay [1] (MD Anderson cohort (n=21)) amounted to 12.6 months; in assay [1] (NKI cohort (n=34)), 11.3 months; in assay [1] (all 55 patients, Trastuzumab-based regimen) it was 11.8 months. Also, the “HR (hazard ratio) for time to progression” value in assay [1] (PIK3CA mut vs PIK3CA wt, multivariate Cox regression) is 1.6. Besides, the “patients with striking initial responses” value in assay [2] is on record as “approximately 60%”. Further, the “resistance to Trastuzumab” value with BT-474 cells (BT-474 cells expressing PIK3CA(wt) or PIK3CA(H1047R), data not shown) is reported as “conferred resistance”; in the assay with SK-BR3 cells it was “conferred resistance”. Further, the “sensitivity to Trastuzumab” value is “almost completely insensitive” with BT-474 cells (BT-474 cells expressing constitutively active caPIK3CA (p110αCaaX)) and “decreases sensitivity” in the assay on BT-474 cells (BT-474 cells with shRNA knockdown of PTEN). Also, in the assay with BT-474 cells (parental BT-474 cells, FIG. 1a), the “response of cells to Trastuzumab” value is given as “reduction in proliferation rate”.
